# Laboratory results as given in PMC5132270 (Cancer Science, 2016).
# Entries after “also recorded” stand apart in the source; their conditions may differ. Read-outs that look alike come from different tables or passages of the source.
# How the values were obtained:
# ALK+ NSCLC [1] = conditions: NP28761, patients who failed on crizotinib, different dose; cited from earlier work
# patients with ALK+ NSCLC = assay: Safety: treatment‐related adverse events, NCI‐CTCAE v4.03; assay type: in vivo, human
# ALK+ NSCLC [2] = conditions: cited from earlier work
# ALK+ NSCLC [3] = conditions: NP28673, patients who failed on crizotinib, different dose; cited from earlier work
# [4] = tested on: ALK inhibitor‐naïve, ALK+ NSCLC; conditions: Japanese patients, J‐ALEX; cited from earlier work
# ALK+ NSCLC [5] = assay: Efficacy: tumor response; assay type: in vivo, human
# advanced ALK+ NSCLC = conditions: phase I study; cited from earlier work
# [6] = ALK inhibitor‐naïve patients, 300 mg twice daily
# [7] = FAS response‐evaluable population (n = 30)
compound,measurement,setting,value
CCc1cc2c(cc1N1CCC(N3CCOCC3)CC1)C(C)(C)c1[nH]c3cc(C#N)ccc3c1C2=O [alectinib],DCR,ALK+ NSCLC [1],79.7%
same,ORR,ALK+ NSCLC [1],47.8%
same,Tolerability,"patients with ALK+ NSCLC; 300 mg twice daily, ALK+ NSCLC patients",well tolerated
same,"AST increased, treatment‐related, all grade",patients with ALK+ NSCLC; crizotinib failure (n = 23),4.3%
same,"AST increased, treatment‐related, all grade, number of patients",patients with ALK+ NSCLC; crizotinib failure (n = 23),1
same,"Blood bilirubin increased, treatment‐related, all grade",patients with ALK+ NSCLC; crizotinib failure (n = 23),8.7%
same,"Blood bilirubin increased, treatment‐related, all grade, number of patients",patients with ALK+ NSCLC; crizotinib failure (n = 23),2
same,"Constipation, treatment‐related, all grade",patients with ALK+ NSCLC; crizotinib failure (n = 23),30.4%
same,"Constipation, treatment‐related, all grade, number of patients",patients with ALK+ NSCLC; crizotinib failure (n = 23),7
same,"Dysgeusia, treatment‐related, all grade",patients with ALK+ NSCLC; crizotinib failure (n = 23),30.4%
same,"Dysgeusia, treatment‐related, all grade, number of patients",patients with ALK+ NSCLC; crizotinib failure (n = 23),7
same,"Neutrophil count decreased, treatment‐related, all grade",patients with ALK+ NSCLC; crizotinib failure (n = 23),17.4%
same,"Neutrophil count decreased, treatment‐related, all grade, number of patients",patients with ALK+ NSCLC; crizotinib failure (n = 23),4
same,"Rash, treatment‐related, all grade",patients with ALK+ NSCLC; crizotinib failure (n = 23),13.0%
same,"Rash, treatment‐related, all grade, number of patients",patients with ALK+ NSCLC; crizotinib failure (n = 23),3
same,"Vomiting, treatment‐related, all grade",patients with ALK+ NSCLC; crizotinib failure (n = 23),13.0%
same,"Vomiting, treatment‐related, all grade, number of patients",patients with ALK+ NSCLC; crizotinib failure (n = 23),3
same,"WBC count decreased, treatment‐related, all grade",patients with ALK+ NSCLC; crizotinib failure (n = 23),21.7%
same,"WBC count decreased, treatment‐related, all grade, number of patients",patients with ALK+ NSCLC; crizotinib failure (n = 23),5
same,Patients with alectinib discontinued due to AE,patients with ALK+ NSCLC; safety population,5.7%
same,Patients with alectinib interrupted due to AE,patients with ALK+ NSCLC; safety population,20%
same,Treatment‐related nausea,patients with ALK+ NSCLC; safety population,8.6%
same,"AST increased, treatment‐related, all grade",patients with ALK+ NSCLC; safety population (n = 35),14.3%
same,"AST increased, treatment‐related, all grade, number of patients",patients with ALK+ NSCLC; safety population (n = 35),5
same,"Blood bilirubin increased, treatment‐related, all grade",patients with ALK+ NSCLC; safety population (n = 35),14.3%
same,"Blood bilirubin increased, treatment‐related, all grade, number of patients",patients with ALK+ NSCLC; safety population (n = 35),5
same,"Constipation, treatment‐related, all grade",patients with ALK+ NSCLC; safety population (n = 35),31.4%
same,"Constipation, treatment‐related, all grade, number of patients",patients with ALK+ NSCLC; safety population (n = 35),11
same,"Dysgeusia, treatment‐related, all grade",patients with ALK+ NSCLC; safety population (n = 35),25.7%
same,"Dysgeusia, treatment‐related, all grade, number of patients",patients with ALK+ NSCLC; safety population (n = 35),9
same,"Neutrophil count decreased, treatment‐related, all grade",patients with ALK+ NSCLC; safety population (n = 35),22.9%
same,"Neutrophil count decreased, treatment‐related, all grade, number of patients",patients with ALK+ NSCLC; safety population (n = 35),8
same,"Rash, treatment‐related, all grade",patients with ALK+ NSCLC; safety population (n = 35),14.3%
same,"Rash, treatment‐related, all grade, number of patients",patients with ALK+ NSCLC; safety population (n = 35),5
same,Treatment‐related grade 4/5 adverse events,patients with ALK+ NSCLC; safety population (n = 35),No treatment‐related grade 4/5 events occurred; also recorded: No treatment‐related grade 4/5 AE were reported
same,"Vomiting, treatment‐related, all grade",patients with ALK+ NSCLC; safety population (n = 35),14.3%
same,"Vomiting, treatment‐related, all grade, number of patients",patients with ALK+ NSCLC; safety population (n = 35),5
same,"WBC count decreased, treatment‐related, all grade",patients with ALK+ NSCLC; safety population (n = 35),22.9%
same,"WBC count decreased, treatment‐related, all grade, number of patients",patients with ALK+ NSCLC; safety population (n = 35),8
same,Treatment‐related grade 4/5 adverse events,"patients with ALK+ NSCLC; safety population (n = 35), listed as Alectinib",no treatment‐related grade 4/5 AE
same,patients achieving an objective response,ALK+ NSCLC [2]; [6],> 90%
same,"patients achieving an objective response, number/total",ALK+ NSCLC [2]; [6],43/46
same,2‐year PFS rate,ALK+ NSCLC [2]; follow‐up,76%
same,patients with complete response (CR),ALK+ NSCLC [2]; follow‐up,19.6%
same,DCR,ALK+ NSCLC [3],78.7%
same,ORR,ALK+ NSCLC [3],50.0%
same,PFS with alectinib vs crizotinib,[4],superior PFS
same,"duration of response, range",ALK+ NSCLC [5]; FAS or crizotinib‐failure populations,2.5–14.1 months
same,median duration of response,ALK+ NSCLC [5]; FAS population,not estimable
same,DCR,ALK+ NSCLC [5]; [7],83.3%
same,Median time to response,ALK+ NSCLC [5]; [7],1.2 months
same,median duration of response,ALK+ NSCLC [5]; crizotinib‐failure population,not estimable
same,Median PFS,"ALK+ NSCLC [5]; crizotinib‐failure population (n = 23), 95% CI 3.9−not reached",12.9 months
same,Median time to response,ALK+ NSCLC [5]; crizotinib‐failure response‐evaluable population (n = 20),1.2 months
same,Median PFS,"ALK+ NSCLC [5]; full analysis set (n = 35), 95% CI 11.1−not reached",13.9 months
same,PFS events,ALK+ NSCLC [5]; patients who had discontinued crizotinib for reasons other than PD,no events occurred
same,Patients with a PFS event,ALK+ NSCLC [5]; patients who had experienced PD with crizotinib,14 patients
C[C@@H](Oc1cc(-c2cnn(C3CCNCC3)c2)cnc1N)c1c(Cl)ccc(F)c1Cl [crizotinib],6‐month progression‐free survival (PFS) rate,advanced ALK+ NSCLC,72%
same,overall response rate (ORR),advanced ALK+ NSCLC,57%
